Data taken from publication PMC4685943 (ACS Chemical Biology, 2015).
Entries after “also recorded” stand apart in the source; their conditions may differ.

System: SRC family kinases (p-SFK)
Assay: SFK phosphorylation, Western blot in NCI-H2286 and HCC-366
Assay type: cell-based
Conditions: NCI-H2286 and HCC-366, 3 h, 0.5 μM

Cc1nc(Nc2ncc(C(=O)Nc3c(C)cccc3Cl)s2)cc(N2CCN(CCO)CC2)n1 [Dasatinib]
effect on p-SFK: robust decrease in p-SFK; also recorded: potent inhibition
